Test results: US7060673B2, “Fusion peptide of human parathyroid hormone derived peptide and tat peptide, preparation thereof, and skin slimming cosmetic composition comprising the same” (LG Household and Health Care Ltd., priority 2001, dated 2006)

What was measured:
[1] = nude mouse back skin 1.7 cm^2, 24 hours, Franz cell, HPLC and LC mass
[2] = tested on: Blab/c mice; settings: 0.5% and 1.0% solutions in ethanol, 50 μl on both ears for 3 days; [3H]-methylthymidine, dpm
[3] = tested on: Guinea pigs; settings: O/W emulsion, closed patch 48 hours
[4] = tested on: V79-4 cells

## KKKKKKKKKGKH
[1]
  transdermal absorption: superior transdermal absorption
[2]
  possibility of allergy induction: lower possibility of allergy induction compared to a control
[3]; concentration 0.01 %
  Irritation Degree: Minute irritation
  Irritation Index (PII): 0.62
[3]; concentration 0.1 %
  Irritation Degree: Minute irritation
  Irritation Index (PII): 0.65
[3]; concentration 0.5 %
  Irritation Degree: Minute irritation
  Irritation Index (PII): 0.71
[4]; concentration of 0.01 or less
  cytotoxicity (MTT): little toxicity
[4]; concentration of 0.1 (%, w.v) or more
  cytotoxicity (MTT): very weak toxicity

Like-named read-outs stand apart in the source and are kept apart here.
